Assay results taken from patent US20250326765A1, “PDE4B INHIBITOR AND USE THEREOF” (XIZANG HAISCO PHARMACEUTICAL CO., LTD., priority 2022, published 2025).

Sequences of proteins named here, by UniProt entry; tags and fusion partners are left off. Residues count along the entry.
UniProt Q07343, 1-564 isoform 2: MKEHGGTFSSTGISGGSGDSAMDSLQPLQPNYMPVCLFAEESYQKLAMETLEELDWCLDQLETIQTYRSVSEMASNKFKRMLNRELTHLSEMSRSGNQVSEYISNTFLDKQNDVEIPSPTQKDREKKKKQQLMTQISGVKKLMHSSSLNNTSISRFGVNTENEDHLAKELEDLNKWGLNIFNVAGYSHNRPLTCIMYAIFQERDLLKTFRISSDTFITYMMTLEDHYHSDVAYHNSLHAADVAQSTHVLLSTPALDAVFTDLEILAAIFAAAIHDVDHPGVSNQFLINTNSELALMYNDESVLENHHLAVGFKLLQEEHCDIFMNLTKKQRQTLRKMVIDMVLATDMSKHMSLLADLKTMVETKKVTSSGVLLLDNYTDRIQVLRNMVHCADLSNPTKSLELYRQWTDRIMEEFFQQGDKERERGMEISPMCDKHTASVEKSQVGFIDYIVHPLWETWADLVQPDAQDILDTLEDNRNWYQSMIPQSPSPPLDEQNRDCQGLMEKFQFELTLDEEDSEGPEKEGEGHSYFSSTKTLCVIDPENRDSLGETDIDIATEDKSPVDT
UniProt Q08499, 303-809 limits assumed: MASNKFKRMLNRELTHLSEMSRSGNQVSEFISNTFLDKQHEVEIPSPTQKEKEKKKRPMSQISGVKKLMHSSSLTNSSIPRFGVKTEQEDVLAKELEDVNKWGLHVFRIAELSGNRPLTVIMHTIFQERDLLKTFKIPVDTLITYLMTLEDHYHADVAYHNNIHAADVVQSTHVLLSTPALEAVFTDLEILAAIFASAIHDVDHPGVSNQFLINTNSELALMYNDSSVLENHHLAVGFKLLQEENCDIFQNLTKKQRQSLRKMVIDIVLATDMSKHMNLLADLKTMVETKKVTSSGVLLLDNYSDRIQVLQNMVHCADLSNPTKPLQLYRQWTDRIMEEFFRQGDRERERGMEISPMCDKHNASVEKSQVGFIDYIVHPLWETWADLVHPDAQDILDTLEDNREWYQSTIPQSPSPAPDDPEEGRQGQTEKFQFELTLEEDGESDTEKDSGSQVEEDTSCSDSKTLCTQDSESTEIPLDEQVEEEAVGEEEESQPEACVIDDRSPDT

Columns and labels:
[1] = target: PDE4B2 (Homo sapiens, UniProt Q07343); test: Effect of compounds on PDE4B2 activity (fluorescence polarization kit); conditions: read-out: PDE4B2 IC50; class symbols
Method: The effect of compounds on PDE4B2 activity was detected by a fluorescence polarization kit (BPS Bioscience, Catalog #60343). According to the instructions of the kit, FAM-Cyclic-3′,5′-AMP at a final concentration of […], 1 ng/well of PDE4B2 (PDE buffer was added to the negative control well), and a compound diluted in a gradient manner (PDE buffer containing 10% DMSO was added to the positive control well) were added to each well, fully mixed, and then reacted at room temperature for 1 h. The Binding Agent was diluted with the Binding Agent Diluent (cAMP) at a ratio of 1:100 for later use, the Binding Agent dilution was taken and added to the test plate at 50 μl/well and incubated at room temperature with slow shaking for 20 minutes. After the incubation was complete, Envision was used for FP detection, with Excitation at 480 nm and Emission at 535 nm. FP was usually represented by mP value.
[formula] • I∥ (S535): fluorescence intensity in parallel direction • I⊥ (P535): fluorescence intensity in perpendicular direction • G: G factor=1
(§1) [formula] • mP(sample): mP of the test compound in a reaction well • mP(negative control): mP in the negative control well • mP(positive control): mP in the positive control well
(§2) According to the calculated inhibition rate at each concentration, the IC50 value of each compound was calculated by GraphPad Prism 8 software.

[2] = system: release of tumor necrosis factor-α (TNF-α) from human peripheral blood mononuclear cells induced by lipopolysaccharide (LPS); test: Inhibition of LPS-induced TNF-α release from human peripheral blood mononuclear cells in vitro; conditions: hPBMC, 100 ng/mL LPS, 4 h; for IC50: read-out: Re IC50 (nM) (relative IC50), TNF-α induced by LPS, class symbols
Method: Normal human peripheral blood which was anticoagulated (citric acid anticoagulation) was collected, and hPBMCs were prepared by Ficoll-Paque PLUS (Cytiva, Cat #17144002, density 1.077 g/mL). The concentration of hPBMC cells was adjusted to 0.25×10^6 cells/mL with RPMI1640 medium and inoculated into a 96-well plate in an amount of 50000 cells per well. Subsequently, different concentrations of drugs were added for pre-incubation for 1 h (the DMSO final concentration was 0.1%, and the positive and negative control wells had the same volume of RPMI1640 containing 0.1% DMSO). After the pre-incubation was complete, 100 ng/mL LPS (SIGMA, L2630) was added to the compound and positive control wells, and the negative control well had the same volume of RPMI1640 containing 0.1% DMSO. Incubation was carried out for 4 h in an incubator at 37° C. and 5% CO2. The cell supernatant was collected, and the content of TNF-α in the supernatant sample was detected by human TNF-α Elisa quantitative test kit (Sino Biological, Cat #KIT10602). The IC50 value was calculated using GraphPad Prism software.

[3] = target: PDE4D2 (Homo sapiens, UniProt Q08499); test: Effect of compounds on PDE4D2 activity (fluorescence polarization kit); conditions: read-out: PDE4D2 IC50; class symbols
Method: The effect of compounds on PDE4D2 activity was detected by a fluorescence polarization kit (BPS Bioscience, Catalog #60345). During the reaction, 12.5 μL of 0.272 ng/well of an enzyme (final concentration: 0.068 ng/well) and 12.5 μL of the compound diluted in a gradient manner (DMSO concentration: 4%) were first pre-incubated at room temperature for 15 minutes, the same volume of the enzyme at the same concentration and 12.5 μL of PDE buffer containing 4% DMSO were added to the positive control well, and 25 μL of PDE buffer containing 2% DMSO was added to the negative control well. After completion, 25 μL of […] FAM-Cyclic-3′,5′-AMP (final concentration: […]) was added to each well, fully mixed, and then incubated at room temperature with slow shaking for 30 minutes. The Binding Agent was diluted with the Binding Agent Diluent (cAMP) at a ratio of 1:100 for later use, 100 μl/well of the Binding Agent dilution was taken and added to all wells of the test plate and incubated at room temperature with slow shaking for 1 hour.
After the incubation was complete, BMG LRBTECH microplate reader was used for FP detection, with Excitation at 485 nm and Emission at 520 nm. FP was usually represented by mP value.
[formula] • I∥ (S520): fluorescence intensity in parallel direction • I⊥ (P520): fluorescence intensity in perpendicular direction • G: G factor=1
as §1, §2

[4] = Pharmacokinetic test in mice
Method: 5.1 Experimental animals: Male ICR mice, 20-25 g, 6 mice/compound. Purchased from Chengdu Ddossy Experimental Animals Co., Ltd.
5.2 Experimental design: On the day of the experiment, 42 ICR mice were randomly grouped according to their body weights. The animals were fasted with water available for 12-14 h one day before administration and fed 4 h after administration.
Before and after administration, 0.06 mL of blood was taken from the orbit under isoflurane anesthesia and placed in an EDTAK2 centrifuge tube for centrifugation at 5000 rpm at 4-C for 10 min, followed by plasma collection. The blood collection time points for the intravenous group and intragastric group were both 0 m, 5 mi, 15 mi, 30 mi, 1 h, 2 h, 4 h, 6 h, 8 h, and 24 h. Before analysis and detection, all the samples were stored at −80° C., and the samples were subjected to quantitative analysis using LC-MS/MS.

[5] = Pharmacokinetic test in beagle dogs
Method: 6.1 Experimental animals: male beagle dogs, about 8-11 kg, 6 beagle dogs/compound, purchased from Beijing Marshall Biotechnology Co., Ltd.
6.2 Experimental method: On the day of the experiment, 18 beagle dogs were randomly grouped according to their body weights. The animals were fasted with water available for 12-14 h one day before administration and fed 4 h after administration. Administration was carried out according to Table 8.
Before and after administration, 1 ml of blood was taken from the jugular vein or limb vein and placed in an EDTAK2 centrifuge tube. Centrifugation was carried out at 5000 rpm at 4° C. for 10 min, and plasma was collected. The blood collection time points for the intravenous group and intragastric group were both 0 min, 5 min, 15 min, 30 min, 1 h, 2 h, 4 h, 6 h, 8 h, 10 h, 12 h, 24 h, 48 h, and 72 h. Before analysis and detection, all the samples were stored at −80° C., and the samples were subjected to quantitative analysis using LC-MS/MS.

[6] = Pharmacokinetic test in monkeys
Method: Experimental animals: Male cynomolgus monkeys, 3-5 kg, 3-6 years old, 6 monkeys/compound. Purchased from Suzhou Xishan Biotechnology Inc.
Experimental method: On the day of the experiment, 12 monkeys were randomly grouped according to their body weights. The animals were fasted with water available for 14-18 h one day before administration and fed 4 h after administration.
Before and after administration, 1.0 mL of blood sample was taken from the limb vein and placed in an EDTAK2 centrifuge tube. Centrifugation was carried out at 5000 rpm at 4° C. for 10 min, and plasma was collected. The blood collection time points for the intravenous group were 0 min, 5 min, 15 min, 30 min, 1 h, 2 h, 4 h, 6 h, 8 h, 10 h, 12 h, and 24 h. Before analysis and detection, all the samples were stored at −80° C., and the samples were subjected to quantitative analysis using LC-MS/MS.

Structure (SMILES)	IC50 [1]	IC50 [3]	Max inhibition (%) [2]	IC50 [2]	other results
CC(=O)N1CCN2c3ccc(-c4nc5c(c(NC6(CO)CCC6)n4)[S@+]([O-])CC5)cc3OCC2C1 (stereo partly drawn)	10 to 50 nM		58.51%	10 to 50 nM	
[O-][S@+]1CCc2nc(N3CC4CC(C3)C4c3ccc(Cl)cc3)nc(NC3(CO)CCC3)c21 (stereo partly drawn)	10 to 50 nM				
[O-][S@+]1CCc2nc(N3CC4CC3CC4c3ccc(Cl)cc3)nc(NC3(CO)CCC3)c21 (stereo partly drawn)	10 to 50 nM	10 to 50 nM			
[O-][S@+]1CCc2nc(N3C[C@H]4CC(c5ccc(Cl)cc5)C[C@H]4C3)nc(NC3(CO)CCC3)c21 (single isomer, unassigned)	10 to 50 nM	< 10 nM			
[O-][S@+]1CCc2nc(N3CCN4c5ccc(Cl)cc5OCC4C3)nc(NC3(CO)CCC3)c21 (single isomer, unassigned) [Compound 47-1]	10 to 50 nM				
[O-][S@+]1CCc2nc(N3CCN4c5ccc(Cl)cc5OCC4C3)nc(NC3(CO)CCC3)c21 (single isomer, unassigned) [Compound 47-2]	< 10 nM	< 10 nM			
C#Cc1ccc2c(c1)OCC1CN(c3nc4c(c(NC5(CO)CCC5)n3)[S@+]([O-])CC4)CCN21 (single isomer, unassigned) [Compound 48-1]	< 10 nM	< 10 nM			
C#Cc1ccc2c(c1)OCC1CN(c3nc4c(c(NC5(CO)CCC5)n3)[S@+]([O-])CC4)CCN21 (single isomer, unassigned) [Compound 48-2]	< 10 nM	10 to 50 nM			
[O-][S@+]1CCc2nc(N3CCN4c5ccccc5OCC4C3)nc(NC3(CO)CCC3)c21 (single isomer, unassigned) [Compound 61-1]	< 10 nM	< 10 nM			
[O-][S@+]1CCc2nc(N3CCN4c5ccccc5OCC4C3)nc(NC3(CO)CCC3)c21 (single isomer, unassigned) [Compound 61-2]	10 to 50 nM	10 to 50 nM			
CN1CCN2c3ccc(-c4nc5c(c(NC6(CO)CCC6)n4)[S@+]([O-])CC5)cc3OCC2C1 (single isomer, unassigned) [Compound 75-1]	< 10 nM	10 to 50 nM	63.52%	< 10 nM	
CN1CCN2c3ccc(-c4nc5c(c(NC6(CO)CCC6)n4)[S@+]([O-])CC5)cc3OCC2C1 (single isomer, unassigned) [Compound 75-2]	10 to 50 nM	50 to 100 nM	72.44%	10 to 50 nM	
[O-][S@+]1CCc2nc(N3CC4C=C(c5ncc6c(n5)CC6)CC4C3)nc(NC3(CO)CCC3)c21 (single isomer, unassigned) [Compound 77-1]	< 10 nM	< 10 nM	75.70%	< 10 nM	
[O-][S@+]1CCc2nc(N3CC4C=C(c5ncc6c(n5)CC6)CC4C3)nc(NC3(CO)CCC3)c21 (single isomer, unassigned) [Compound 77-2]	10 to 50 nM	10 to 50 nM	73.99%	< 10 nM	
CC#Cc1cnc2c(c1)OCC1CN(c3nc4c(c(NC5(CO)CCC5)n3)[S@+]([O-])CC4)CCN21 (single isomer, unassigned) [Compound 80-2]	< 10 nM	10 to 50 nM	63.03%	10 to 50 nM	

The next lines start with results.

IC50 [1]	IC50 [3]	Structure (SMILES)	Max inhibition (%) [2]	IC50 [2]	other results
< 10 nM	10 to 50 nM	C#Cc1cnc2c(c1)OCC1CN(c3nc4c(c(NC5(CO)CCC5)n3)[S@+]([O-])CC4)CCN21 (single isomer, unassigned) [Compound 67-1]		10 to 50 nM	F ([4]; i.g. (10 mg/kg)): ≥98%; AUC0-t ([4]; plasma, i.g. (10 mg/kg)): 41862 ± 676 ng·h/mL; T1/2 ([4]; plasma, i.g. (10 mg/kg)): 2.66 ± 0.14 h; AUC0-t ([4]; plasma, i.v. (5 mg/kg)): 4552 ± 393 ng·h/mL; CL ([4]; plasma, i.v. (5 mg/kg)): 9.04 ± 0.75 mL/min/kg; T1/2 ([4]; plasma, i.v. (5 mg/kg)): 1.27 ± 0.053 h; Vdss ([4]; plasma, i.v. (5 mg/kg)): 0.986 ± 0.076 L/kg; F ([5]; i.g. (5 mg/kg)): 58.7 ± 13%; AUC0-t ([5]; plasma, i.g. (5 mg/kg)): 9080 ± 1987 ng·h/mL; T1/2 ([5]; plasma, i.g. (5 mg/kg)): 6.39 ± 0.54 h; AUC0-t ([5]; plasma, i.v. (1 mg/kg)): 5154 ± 436 ng·h/mL; CL ([5]; plasma, i.v. (1 mg/kg)): 3.24 ± 0.27 mL/min/kg; T1/2 ([5]; plasma, i.v. (1 mg/kg)): 6.20 ± 0.35 h; Vdss ([5]; plasma, i.v. (1 mg/kg)): 1.09 ± 0.091 L/kg; F ([6]; i.g. (5 mg/kg)): 34.9 ± 5.3%; AUC0-t ([6]; plasma, i.g. (5 mg/kg)): 7662 ± 1168 ng·h/mL; AUC0-t ([6]; plasma, i.v. (1 mg/kg)): 4391 ± 592 ng·h/mL; CL ([6]; plasma, i.v. (1 mg/kg)): 5.70 ± 0.63 mL/min/kg; Vdss ([6]; plasma, i.v. (1 mg/kg)): 1.06 ± 0.024 L/kg
10 to 50 nM	50 to 100 nM	C#Cc1cnc2c(c1)OCC1CN(c3nc4c(c(NC5(CO)CCC5)n3)[S@+]([O-])CC4)CCN21 (single isomer, unassigned) [Compound 67-2]		10 to 50 nM	
< 10 nM	10 to 50 nM	[O-][S@+]1CCc2nc(N3CCN4c5ncc(Cl)cc5OCC4C3)nc(NC3(CO)CCC3)c21 (single isomer, unassigned) [Compound 68-1]		10 to 50 nM	
< 10 nM	10 to 50 nM	[O-][S@+]1CCc2nc(N3CCN4c5ncc(Cl)cc5OCC4C3)nc(NC3(CO)CCC3)c21 (single isomer, unassigned) [Compound 68-2]		50 to 100 nM	
< 10 nM	< 10 nM	CC1CN(c2ccc3c(c2)OCC2CN(c4nc5c(c(NC6(CO)CCC6)n4)[S@+]([O-])CC5)CCN32)C1 (single isomer, unassigned) [Compound 81-2]			
